This is a selection; strong and weak results do not stand in their true shares. Some of these compounds have results that are not shown, active ones among them. Records with an inconclusive call do not appear. Activity calls are given as the source filed them. Calls come from the whole dose curve; as a rule, active = well fitted cell-killing curve with a large enough effect; inconclusive = small, poorly fitted or top-dose-only effect, or effect the other way; inactive = flat fitted curve, though single readings scatter.

This test in a line: GF-AFC viability counterscreen for inhibitors of alpha-synuclein gene (SNCA) expression. Note: nearly all actives have a fitted effect of over 30% in size. To be noted: HEK-293-SNCA-luc viability, GF-AFC fluorescence, 24 h; at 57.1 µM (top of the series). From the text:
Assay Submitter (PI): Daniel R. Scoles Ph.D.
Department of Neurology, University of Utah, Salt Lake City, Utah
Accumulation of alpha-synuclein is a main underlying pathological feature of Parkinson's disease (PD) and alpha-synucleinopathies, for which lowering expression of the alpha-synuclein gene (SNCA) is a potential therapeutic avenue. Using a cell-based luciferase reporter of SNCA expression we performed a quantitative high throughput screen (qHTS) of 155,885 compounds in dose response. The screening assay was generated using genome editing to insert the luciferase gene downstream and in frame of the SNCA gene in HEK-293 cells (1). A viability counterscreen using GF-AFC was used to eliminate cytotoxic and false positive compounds. After in silico analysis (clustering, removal of frequent hitter nuisance chemotypes), inhibitor compounds from the primary screen were selected for follow up and re-tested at 11-doses in the SNCA-luc cells (luciferase and GF-AFC confirmation), and in CMV-luc expressing cell line to flag general transcriptional repressors.
Described herein are the results of the GF-AFC viability counterscreen for SNCA inhibitors; inactivity (no decrease in fluorescence signal, not cytotoxic) is the desired output for this assay.
1. Dansithong, W., Paul, S., Scoles, D. R., Pulst, S. M., and Huynh, D. P. (2015) Generation of SNCA Cell Models Using Zinc Finger Nuclease (ZFN) Technology for Efficient High-Throughput Drug Screening. PLoS ONE 10, e0136930.
SEQUENCE No. (e.g., 1, 2, 3, etc.); […] (e.g., Cells, Incubation, Reagent, etc.); VALUE; DESCRIPTION
1; Cells; 4 uL; Dispense 1500 HEK-293-SNCA-luc cells/well into Greiner 1536-well white / solid bottom tissue culture treated plate. The plate was covered with metal lids with gas-exchange holes.
2; Incubate; 24 hours; Incubate at 37C, 5% CO2, 95% RH.
3; Compounds; 23 nL; Compounds and controls were transferred via a Kalypsys Pin Tool (Wako USA) equipped with a 1536-slotted pin array. The plate was covered with metal lids with gas-exchange holes.
4; Incubate; 24 hours; Incubate at 37C, 5% CO2, 95% RH.
5; Dispense; 1 uL; Dispense Gly-Phe-7-amino-4-trifluoromethylcoumarin (GF-AFC, prepared at 125 uM in PBS) was added. The plate was covered with metal lids with gas-exchange holes.
6; Incubate; 30 min; Incubate at 37C, 5% CO2.
7; Detector; Fluorescence; Measure fluorescence with ViewLux microplate reader (PerkinElmer) equipped with 405/10 excitation and 540/25 emission filters.
8; Dispense; 3 uL; Dispense ONE-Glo ([…]) lucifase detection reagent was added to each well. Plates were covered with metal lids with gas-exchange holes.
9; Incubate; 15 min; Incubate at room temperature.
10; Detector; Luminescence; Measure luminescence with ViewLux microplate reader (PerkinElmer) equipped with clear filters.
NOTES (numbers refer to sequence above)
1; HEK-293-SNCA-luc were cultured and suspended in phenol-red free DMEM (4.5 g/L glucose, 25 mM HEPES, cat #21063 (Thermo)).
3; Compounds were added to the assay plate in an 11-point intra plate dose response, 1:3 titration in DMSO with a final concentration range of […]. Vehicle-only plates, with DMSO being pin-transferred to every well, were inserted at the beginning of screening runs to confirm expected assay performance. Activity was normalized to wells containing medium only (-100% activity, full inhibition) and SNCA-luc cells treated with DMSO vehicle control (0% activity), contained on the same plate as test samples.
10; Signals were analyzed, and dose-response curves were fit using the Hill equation. Compounds in curve classes -1.1, -1.2, -2.1, -2.2 in the SNCA-luc assay were considered active. Compounds were eliminated from further consideration if also active (curve class -1.1, -1.2, -1.3, -1.4, -2.1, -2.2, -2.3, -2.4) in the GF-AFC cytotoxicity assay.
(Counterscreens check selectivity or assay interference.)
On to `COc1cc(C(=O)NCC2(N(C)C)CCCCC2)cc(OC)c1OC`, for which the activity change, negative = cytotoxicity is inactive: 11.1%. In the case of `Cc1cccc(C(=O)NCC2(N(C)C)CCCCC2)c1`, the activity change, negative = cytotoxicity is inactive: -8.94%.

In the case of `CC(C)Oc1ccc(C(=O)NCC2(N(C)C)CCCCC2)cc1`, the activity change, negative = cytotoxicity is inactive: -6.73%. On to `COc1cccc(C(=O)NCC2(N3CCOCC3)CCCCC2)c1`, for which the activity change, negative = cytotoxicity is inactive: -21.8%. In the case of `CC(C)COc1ccc(C(=O)NCC2(N(C)C)CCCCC2)cc1` it was inactive: -13.9%; in that of `COc1ccc(C(=O)NCC2(N(C)C)CCCCC2)cc1Cl`, inactive: 4.23%. In the case of `CCOc1cccc(C(=O)NCC2(N(C)C)CCCCC2)c1` it was inactive: 19.6%.

Turning to `CN(C)C1(CNC(=O)c2ccccc2[N+](=O)[O-])CCCCC1`, the activity change, negative = cytotoxicity was inactive: -1.11%.

In the case of `CCCCOc1ccccc1C(=O)NCC1(N(C)C)CCCCC1`, the activity change, negative = cytotoxicity is inactive: -11.5%. Next, `CN(C)C1(CNC(=O)c2cccc(Cl)c2)CCCCC1`: inactive: 18.8%. Next, `CN(C)C1(CNC(=O)c2ccccc2F)CCCCC1`: inactive: -2.4%.

Source of the values: PubChem BioAssay AID1671193 (National Center for Advancing Translational Sciences (NCATS), 2021).
